How the values were obtained:
Assay in all cases: Prophylactic effect on ischemic breakdown of cytoskeletal proteins, 5-minute brain ischemia-reperfusion model
Assay type in all cases: in vivo, gerbil
MAP-2 = tested on: MAP-2; design: key to Effect on decrease in MAP-2: +: Statistically significant; -: Not effective
Protocol: (§1) A gerbil was immobilized in supine position and median section was performed in the cervical region under local anesthesia. Then, the bilateral common carotid arteries were stripped off carefully not to injure the vagus and sympathetic nerves running in parallel, . Then, each common carotid artery was obstructed with a small clip and after an interval of 5, 10 or 15 minutes, the clips were removed. The animal was decapitated immediately, 4 days or 1 week after the removal of the clips, and the brain was isolated. Untreated animals served as controls and animals undergoing sham operation (involving the stripping procedure only) were also investigated. The isolated brain was sectioned under ice-cooling into the frontal cortex (upper 2/3, approximately corresponding to the 1st to the 5th layer, ∼80 mg), striatum (∼20 mg) and hippocampus (∼50 mg) and each portion was homogenized in 4 times volume of (v/w) of 0.01 M phosphate buffer (pH 7.2). Each homogenate was centrifuged at 100,000 G for 30 minutes to obtain a supernatant. Equal parts of these supernatants were subjected to SDS-polyacrylamide gel (5%) electrophoresis and the proteins, namely MAP-2 (MW: 250-260K) calspectin (MW: 230-240K) and clathrin (MW: 180K), were quantified by measuring the absorbances at 560 nm with a densitometer (CS-930, Shimazu), and the proportion of each protein to the total water-soluble protein (exactly, the integral sum of the absorbance areas) was calculated. In addition, the relative percentage to the value of the untreated control group was also calculated.
(§2) Two series of experiments were carried out. […] One hour after the reperfusion, the animal was killed by decapitation and the brain was removed. […] One hour after the final administration (day 5), the animal was decapitated and the brain was isolated. The isolated brain was subjected to fractionation and electrophoresis as described above.

calspectin = tested on: calspectin; design: key to Effect on decrease in Calspectin: +: Statistically significant; -: Not effective
Protocol: as §1, §2

clathrin = tested on: clathrin; design: key to Effect on decrease in Clathrin: +: Statistically significant; -: Not effective
Protocol: as §1, §2

[1] = Cortex, 0.01 mg/kg s.c. 1 hour before ischemia, 1 hour after ischemia
[2] = Cortex, 0.1 mg/kg s.c. 1 hour before ischemia and once a day for 4 days, 4 days after ischemia
[3] = Cortex, 0.1 mg/kg s.c. 1 hour before ischemia, 1 hour after ischemia
[4] = Cortex, 1 mg/kg s.c. 1 hour before ischemia and once a day for 4 days, 4 days after ischemia
[5] = Cortex, 1 mg/kg s.c. 1 hour before ischemia, 1 hour after ischemia
[6] = Cortex, 10 mg/kg s.c. 1 hour before ischemia and once a day for 4 days, 4 days after ischemia
[7] = Frontal cortex, Left: dosed 1 hour before ischemia, killed 1 hour after ischemia
[8] = Frontal cortex, Right: dosed 1 hour before ischemia and for 4 subsequent days, killed 1 hour after the last dosing
[9] = Hippocampus, 0.01 mg/kg s.c. 1 hour before ischemia, 1 hour after ischemia
[10] = Hippocampus, 0.1 mg/kg s.c. 1 hour before ischemia and once a day for 4 days, 4 days after ischemia
[11] = Hippocampus, 0.1 mg/kg s.c. 1 hour before ischemia, 1 hour after ischemia
[12] = Hippocampus, 1 mg/kg s.c. 1 hour before ischemia and once a day for 4 days, 4 days after ischemia
[13] = Hippocampus, 1 mg/kg s.c. 1 hour before ischemia, 1 hour after ischemia
[14] = Hippocampus, 10 mg/kg s.c. 1 hour before ischemia and once a day for 4 days, 4 days after ischemia
[15] = Hippocampus, Left: dosed 1 hour before ischemia, killed 1 hour after ischemia
[16] = Hippocampus, Right: dosed 1 hour before ischemia and for 4 subsequent days, killed 1 hour after the last dosing
[17] = Striatum, 0.01 mg/kg s.c. 1 hour before ischemia, 1 hour after ischemia
[18] = Striatum, 0.1 mg/kg s.c. 1 hour before ischemia and once a day for 4 days, 4 days after ischemia
[19] = Striatum, 0.1 mg/kg s.c. 1 hour before ischemia, 1 hour after ischemia
[20] = Striatum, 1 mg/kg s.c. 1 hour before ischemia and once a day for 4 days, 4 days after ischemia
[21] = Striatum, 1 mg/kg s.c. 1 hour before ischemia, 1 hour after ischemia
[22] = Striatum, 10 mg/kg s.c. 1 hour before ischemia and once a day for 4 days, 4 days after ischemia
[23] = Striatum, Left: dosed 1 hour before ischemia, killed 1 hour after ischemia
[24] = Striatum, Right: dosed 1 hour before ischemia and for 4 subsequent days, killed 1 hour after the last dosing
[25] = sum of left and right (in brackets)

COCCOC(=O)C1=C(C)NC(C)=C(C(=O)OC(C)C)C1c1cccc([N+](=O)[O-])c1 (centres unmarked) [Nimodipine, nimodipine]
MAP-2 protein concentration (MAP-2; [1]): 55.7± 7.8 % of normal value
MAP-2 protein concentration (MAP-2; [2]): 46.2±12.0 % of normal value
MAP-2 protein concentration (MAP-2; [3]): 61.8±10.6 % of normal value
MAP-2 protein concentration (MAP-2; [4]): 35.7±14.2 % of normal value
MAP-2 protein concentration (MAP-2; [5]): 65.3± 6.3 % of normal value
MAP-2 protein concentration (MAP-2; [6]): 41.6±16.5 % of normal value
Effect on decrease in MAP-2 (MAP-2; [7]): -/-
Effect on decrease in MAP-2 (MAP-2; [8]): -/-
MAP-2 protein concentration (MAP-2; [9]): 41.7± 2.6 % of normal value
MAP-2 protein concentration (MAP-2; [10]): 53.6± 5.2 % of normal value
MAP-2 protein concentration (MAP-2; [11]): 44.5± 5.4 % of normal value
MAP-2 protein concentration (MAP-2; [12]): 54.8± 9.4 % of normal value
MAP-2 protein concentration (MAP-2; [13]): 61.9± 9.9 % of normal value
MAP-2 protein concentration (MAP-2; [14]): 57.2±13.0 % of normal value
Effect on decrease in MAP-2 (MAP-2; [15]): +
Effect on decrease in MAP-2 (MAP-2; [16]): -
MAP-2 protein concentration (MAP-2; [17]): 54.5± 5.9 % of normal value
MAP-2 protein concentration (MAP-2; [18]): 37.2± 7.3 % of normal value
MAP-2 protein concentration (MAP-2; [19]): 53.9± 7.8 % of normal value
MAP-2 protein concentration (MAP-2; [20]): 65.2± 3.1 % of normal value
MAP-2 protein concentration (MAP-2; [21]): 56.8± 7.1 % of normal value
MAP-2 protein concentration (MAP-2; [22]): 67.8±10.2 % of normal value
Effect on decrease in MAP-2 (MAP-2; [23]): +/+
Effect on decrease in MAP-2 (MAP-2; [24]): +/+
Calspectin protein concentration (calspectin; [1]): 74.2± 8.5 % of normal value
Calspectin protein concentration (calspectin; [2]): 45.3± 8.9 % of normal value
Calspectin protein concentration (calspectin; [3]): 67.2±13.6 % of normal value
Calspectin protein concentration (calspectin; [4]): 45.6±15.1 % of normal value
Calspectin protein concentration (calspectin; [5]): 80.2± 6.0 % of normal value
Calspectin protein concentration (calspectin; [6]): 44.2±13.0 % of normal value
Effect on decrease in Calspectin (calspectin; [7]): -/-
Effect on decrease in Calspectin (calspectin; [8]): -/-
Calspectin protein concentration (calspectin; [9]): 58.9± 4.6 % of normal value
Calspectin protein concentration (calspectin; [10]): 69.3±11.2 % of normal value
Calspectin protein concentration (calspectin; [11]): 78.3±12.7 % of normal value
Calspectin protein concentration (calspectin; [12]): 62.6±14.5 % of normal value
Calspectin protein concentration (calspectin; [13]): 84.5±18.3 % of normal value
Calspectin protein concentration (calspectin; [14]): 69.5± 6.5 % of normal value
Effect on decrease in Calspectin (calspectin; [15]): -/-
Effect on decrease in Calspectin (calspectin; [16]): -/-
Calspectin protein concentration (calspectin; [17]): 51.8± 7.5 % of normal value
Calspectin protein concentration (calspectin; [18]): 46.6± 9.3 % of normal value
Calspectin protein concentration (calspectin; [19]): 67.6±12.2 % of normal value
Calspectin protein concentration (calspectin; [20]): 59.1± 4.6 % of normal value
Calspectin protein concentration (calspectin; [21]): 63.9±17.6 % of normal value
Calspectin protein concentration (calspectin; [22]): 58.9± 5.3 % of normal value
Effect on decrease in Calspectin (calspectin; [23]): -/-
Effect on decrease in Calspectin (calspectin; [24]): -/-
Total score, Calspectin (calspectin; [25]): 0/0 (0)
Effect on decrease in Clathrin (clathrin; [7]): -/-
Effect on decrease in Clathrin (clathrin; [8]): -/-
Effect on decrease in Clathrin (clathrin; [15]): -/-
Effect on decrease in Clathrin (clathrin; [16]): -/-
Effect on decrease in Clathrin (clathrin; [23]): -/-
Effect on decrease in Clathrin (clathrin; [24]): -/-
Total score, Clathrin (clathrin; [25]): 0/0 (0)

— EP0322747B1, “A brain neuron protecting agent containing a dihydropyridine compound” (priority 1987, dated 1989)
